## Permeability data for macrocyclic peptides

Collected by the curators of CycPeptMPDB (Li et al. 2023) from Barlow et al. 2020, doi:10.1021/acschembio.0c00218.

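Lipid, pH, incubation time, direction and concentration are not recorded in the data file. The list need not hold all peptides of the study. Entries at the database's floor value (log10 P of -10) are not listed.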

PAMPA measures passive passage through an artificial lipid membrane.
P is given in units of 10^-6 cm/s (from log10 values with two decimals); larger means faster passage.
Entries marked < or ≤ lay at or below the stated limit.

| structure (SMILES) | PAMPA (10^-6 cm/s) |
|---|---|
| CCOC(=O)n1cnc(C[C@@H]2NC(=O)[C@H](CC(C)C)N(C)C(=O)[C@H]([C@@H](C)CC)NC(=O)CCCNC(=O)[C@H](CC(C)C)N(C)C2=O)c1 | 3.5 |
| CC[C@H](C)[C@@H]1NC(=O)CCCNC(=O)[C@H](CC(C)C)N(C)C(=O)[C@H](CO)NC(=O)[C@H](CC(C)C)N(C)C1=O | < 0.1 |
| CC[C@H](C)[C@@H]1NC(=O)CCCNC(=O)[C@H](CC(C)C)N(C)C(=O)[C@H](CCCCN)NC(=O)[C@H](CC(C)C)N(C)C1=O | < 0.1 |
| CC[C@H](C)[C@@H]1NC(=O)CCCNC(=O)[C@H](CC(C)C)N(C)C(=O)[C@H](COC(C)=O)NC(=O)[C@H](CC(C)C)N(C)C1=O | 1.9 |
| CC[C@H](C)[C@@H]1NC(=O)CCCNC(=O)[C@H](CC(C)C)N(C)C(=O)[C@H](CCC(=O)OC)NC(=O)[C@H](CC(C)C)N(C)C1=O | 3.3 |
| CC[C@H](C)[C@@H]1NC(=O)CCCNC(=O)[C@H](CC(C)C)N(C)C(=O)[C@H](CC(=O)OC)NC(=O)[C@H](CC(C)C)N(C)C1=O | 3.9 |
| CC[C@H](C)[C@@H]1NC(=O)CCCNC(=O)[C@H](CC(C)C)NC(=O)[C@H](CC(C)C)NC(=O)[C@H](CC(C)C)NC1=O | 0.2 |
| CC[C@H](C)[C@@H]1NC(=O)CCCNC(=O)[C@H](CC(C)C)NC(=O)[C@H](CC(C)C)N(C)C(=O)[C@H](CC(C)C)N(C)C1=O | 3.6 |
| CC[C@H](C)[C@@H]1NC(=O)CCCNC(=O)[C@H](CC(C)C)N(C)C(=O)[C@H](CCCCNC(C)=O)NC(=O)[C@H](CC(C)C)N(C)C1=O | 0.71 |
| CC[C@H](C)[C@H]1C(=O)N[C@@H](CC(C)C)C(=O)N[C@@H](CC(C)C)C(=O)N(C)[C@@H](CC(C)C)C(=O)NCCCC(=O)N1C | 5.4 |
| CC[C@H](C)[C@@H]1NC(=O)CCCNC(=O)[C@H](CC(C)C)N(C)C(=O)[C@H](CC(C)C)NC(=O)[C@H](CC(C)C)NC1=O | 1 |
| CC[C@H](C)[C@@H]1NC(=O)CCCN(C)C(=O)[C@H](CC(C)C)N(C)C(=O)[C@H](CC(C)C)NC(=O)[C@H](CC(C)C)N(C)C1=O | 4.3 |
| CC[C@H](C)[C@@H]1NC(=O)CCCNC(=O)[C@H](CC(C)C)N(C)C(=O)[C@H](Cc2c[nH]cn2)NC(=O)[C@H](CC(C)C)N(C)C1=O | < 0.1 |
| CC[C@H](C)[C@@H]1NC(=O)CCCNC(=O)[C@H](CC(C)C)N(C)C(=O)[C@H](CC(C)C)N(C)C(=O)[C@H](CC(C)C)NC1=O | 4.9 |
| CC[C@H](C)[C@@H]1NC(=O)CCCNC(=O)[C@H](CC(C)C)N(C)C(=O)[C@H](CCC(N)=O)NC(=O)[C@H](CC(C)C)N(C)C1=O | < 0.1 |
| CC[C@H](C)[C@@H]1NC(=O)CCCNC(=O)[C@H](CC(C)C)N(C)C(=O)[C@H](CC(C)C)NC(=O)[C@H](CC(C)C)N(C)C1=O | 5.5 |
| CC[C@H](C)[C@@H]1NC(=O)CCCNC(=O)[C@H](CC(C)C)N(C)C(=O)[C@H](CCCNC(=N)N)NC(=O)[C@H](CC(C)C)N(C)C1=O | < 0.1 |
| CC[C@H](C)[C@@H]1NC(=O)CCCNC(=O)[C@H](CC(C)C)N(C)C(=O)[C@H](CC(N)=O)NC(=O)[C@H](CC(C)C)N(C)C1=O | < 0.1 |
| CC[C@H](C)[C@@H]1NC(=O)CCCNC(=O)[C@H](CC(C)C)N(C)C(=O)[C@H](CCC(=O)O)NC(=O)[C@H](CC(C)C)N(C)C1=O | < 0.1 |
| CC[C@H](C)[C@@H]1NC(=O)CCCN(C)C(=O)[C@H](CC(C)C)NC(=O)[C@H](CC(C)C)N(C)C(=O)[C@H](CC(C)C)NC1=O | 5 |
| CCOC(=O)N(C(=O)C[C@@H]1NC(=O)[C@H](CC(C)C)N(C)C(=O)[C@H]([C@@H](C)CC)NC(=O)CCCNC(=O)[C@H](CC(C)C)N(C)C1=O)C(=O)OCC | 8.1 |
| CCOC(=O)/N=C(/NCCC[C@@H]1NC(=O)[C@H](CC(C)C)N(C)C(=O)[C@H]([C@@H](C)CC)NC(=O)CCCNC(=O)[C@H](CC(C)C)N(C)C1=O)NC(=O)OCC | 1.3 |
| CC[C@H](C)[C@@H]1NC(=O)CCCNC(=O)[C@H](CC(C)C)N(C)C(=O)[C@H](CC(=O)O)NC(=O)[C@H](CC(C)C)N(C)C1=O | < 0.1 |
| CC[C@H](C)[C@H]1C(=O)N(C)[C@@H](CC(C)C)C(=O)N[C@@H](CC(C)C)C(=O)N(C)[C@@H](CC(C)C)C(=O)N(C)CCCC(=O)N1C | 5 |
| CCOC(=O)N(C(=O)CC[C@@H]1NC(=O)[C@H](CC(C)C)N(C)C(=O)[C@H]([C@@H](C)CC)NC(=O)CCCNC(=O)[C@H](CC(C)C)N(C)C1=O)C(=O)OCC | 5.6 |
| CC[C@H](C)[C@@H]1NC(=O)CCCNC(=O)[C@H](CC(C)C)N(C)C(=O)[C@H](CCCCNC(=O)C(F)(F)F)NC(=O)[C@H](CC(C)C)N(C)C1=O | 4.8 |

Excerpt, the final 2 entries:

{"smiles": "CCOC(=O)N(C(=O)CC[C@@H]1NC(=O)[C@H](CC(C)C)N(C)C(=O)[C@H]([C@@H](C)CC)NC(=O)CCCNC(=O)[C@H](CC(C)C)N(C)C1=O)C(=O)OCC", "PAMPA (10^-6 cm/s)": "5.6"}
{"smiles": "CC[C@H](C)[C@@H]1NC(=O)CCCNC(=O)[C@H](CC(C)C)N(C)C(=O)[C@H](CCCCNC(=O)C(F)(F)F)NC(=O)[C@H](CC(C)C)N(C)C1=O", "PAMPA (10^-6 cm/s)": "4.8"}